AlphaSeq binding of Ab-14 heavy chain variants to a spike HR2 peptide

Values reported by Li et al. 2023, doi:10.1038/s41467-023-39022-2 (FLAb copy).

All variants were tested on one target, the spike HR2 peptide PDVDLGDISGINAS (SARS-CoV-2).

Ab-14 is the parent antibody, in scFv form: VH, then three GGGGS repeats, then VL. The light chain is unchanged in all variants.
VH: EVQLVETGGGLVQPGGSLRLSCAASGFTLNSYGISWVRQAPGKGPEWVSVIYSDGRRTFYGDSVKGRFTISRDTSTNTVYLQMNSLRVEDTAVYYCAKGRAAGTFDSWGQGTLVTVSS
VL: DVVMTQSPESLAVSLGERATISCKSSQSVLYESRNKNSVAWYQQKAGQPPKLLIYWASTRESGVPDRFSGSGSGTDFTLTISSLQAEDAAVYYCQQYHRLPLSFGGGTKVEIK

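The parent was found by panning a naive human phage display library on the peptide. These sequences belong to a second round, designed from the earlier measurements on random variants of the parent. Their group label is 14H_GPLM_Gen (GPLM: also part of the Gaussian process libraries; Gen: genetic algorithm; a sequence that several methods proposed may carry one label only). Affinity was read by AlphaSeq, a pooled yeast mating assay with surface-displayed partners. The frequency of each diploid, read from paired DNA barcodes, reflects how well the two displayed proteins bind. Scores were corrected for input abundance and mapped to Kd with protein pairs of known affinity run in the same pool. Mating was done six times.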

Changes read parent residue, position, new residue, counted from the first residue of the VH shown. Scale: log10 of Kd in nM, estimated from mating counts; low values are strong binders. A pair that was not seen in that replicate is written "nd"; this usually means weak binding, but a binder can also be missed. In the paper, a design with two or fewer of six values counts as a poor binder. Nonspecific signal, from three strains lacking the peptide, appeared in 1% of pairings of all heavy chain designs, centred on 2.08 (5% of these signals below 0.84); values are not corrected for it. The control count says in how many pairings with the empty strains this scFv gave a signal, with their mean in brackets. A sequence measured in both rounds can read differently, since the two assays cover different ranges.

{"changes": "T28S R56K G61A A101Q", "log10 Kd, replicates": "0.99 0.48 0.03 -0.15 0.02 -0.10", "empty controls": "2 of 18 (2.02)"}
{"changes": "S31D A101Q S107T", "log10 Kd, replicates": "-0.13 0.57 -0.13 -0.15 -0.38 1.07", "empty controls": "0 of 18"}
{"changes": "T28S R100V", "log10 Kd, replicates": "nd nd nd nd nd nd", "empty controls": "0 of 18"}
{"changes": "T28W S31E", "log10 Kd, replicates": "nd 1.63 1.06 1.36 1.17 1.48", "empty controls": "1 of 18 (1.78)"}
{"changes": "S31E R56M A101T", "log10 Kd, replicates": "nd nd nd 1.14 nd nd", "empty controls": "0 of 18"}
{"changes": "T28W S31E G61A A101T", "log10 Kd, replicates": "0.88 -0.05 0.22 -0.20 -0.02 -0.09", "empty controls": "1 of 18 (2.19)"}
{"changes": "T28S S31D A101T S107G", "log10 Kd, replicates": "0.02 0.08 0.00 -0.23 0.15 0.15", "empty controls": "0 of 18"}
{"changes": "T28D G61A T104K", "log10 Kd, replicates": "nd nd nd nd nd nd", "empty controls": "0 of 18"}
{"changes": "T28N T58S G61A A101T", "log10 Kd, replicates": "0.30 0.25 0.58 0.04 0.20 0.44", "empty controls": "1 of 18 (2.11)"}
{"changes": "T28S A101T S107L", "log10 Kd, replicates": "nd nd nd nd 1.44 nd", "empty controls": "0 of 18"}
{"changes": "T28S S31D A101T", "log10 Kd, replicates": "0.39 0.28 1.05 0.47 -0.03 1.41", "empty controls": "0 of 18"}
{"changes": "G61Q R100E S107T", "log10 Kd, replicates": "nd nd nd nd nd nd", "empty controls": "0 of 18"}
{"changes": "T28S G61D R100E", "log10 Kd, replicates": "0.58 1.22 -0.03 0.12 0.73 0.26", "empty controls": "0 of 18"}
{"changes": "S53A D106W", "log10 Kd, replicates": "nd nd nd nd nd nd", "empty controls": "0 of 18"}
{"changes": "S31E R56L A101T", "log10 Kd, replicates": "0.37 -0.35 0.85 -0.35 0.50 -0.05", "empty controls": "0 of 18"}
{"changes": "T28S S31E G61A R100Q", "log10 Kd, replicates": "-0.18 0.05 -0.61 -0.47 -0.18 -0.43", "empty controls": "0 of 18"}
{"changes": "T28S S31E S63Q A101T", "log10 Kd, replicates": "0.71 0.05 -0.17 0.52 0.50 1.01", "empty controls": "0 of 18"}
{"changes": "T28S A101T S107N", "log10 Kd, replicates": "1.26 0.64 0.41 1.22 0.62 1.72", "empty controls": "0 of 18"}

Top 2 of the variants detected in all replicates, tightest first:

| changes | log10 Kd, replicates | empty controls |
|---|---|---|
| T28S S31E G61A R100Q | -0.18 0.05 -0.61 -0.47 -0.18 -0.43 | 0 of 18 |
| T28S S31D A101T S107G | 0.02 0.08 0.00 -0.23 0.15 0.15 | 0 of 18 |